Measurements as given in PubChem BioAssay (Tox21).
Where “and” joins values, the source holds several entries; their conditions need not be identical. Equal entries are not always repeated. The list shows a part of the results, in another mix than the full data. Results filed as inconclusive are left out. Calls of active or inactive are those of the source. The call rests on the fitted dose curve.

Sequences of proteins named here, by UniProt entry; tags and fusion partners are left off. A change or cut given only in a name is not applied to a line headed by its entry.
UniProt P11229: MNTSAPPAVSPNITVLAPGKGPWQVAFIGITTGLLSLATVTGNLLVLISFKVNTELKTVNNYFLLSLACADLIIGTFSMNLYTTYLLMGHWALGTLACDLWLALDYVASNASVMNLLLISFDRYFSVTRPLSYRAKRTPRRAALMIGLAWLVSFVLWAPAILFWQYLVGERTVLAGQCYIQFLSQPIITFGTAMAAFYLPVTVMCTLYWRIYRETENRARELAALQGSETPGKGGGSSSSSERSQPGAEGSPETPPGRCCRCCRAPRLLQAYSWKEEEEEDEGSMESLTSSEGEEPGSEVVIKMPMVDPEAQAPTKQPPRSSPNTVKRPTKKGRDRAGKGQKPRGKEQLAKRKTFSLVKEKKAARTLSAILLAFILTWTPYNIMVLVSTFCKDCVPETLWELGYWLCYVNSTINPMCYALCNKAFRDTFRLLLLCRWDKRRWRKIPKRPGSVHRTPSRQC

Columns and labels:
[1] = p53 small molecule agonists, cell-based qHTS assay with human liver microsomes (AID 1963577); details: HCT-116 p53RE-bla with human liver microsomes, ratio, 16 h; series mostly up to 66 µM; further: potency means the concentration at half of the fitted maximal effect;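 on activation: p53 response element beta-lactamase reporter cells with liver microsomes plus NADPH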
Summary of the method: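 p53RE-bla cells; 5 h settle, 37 C/5% CO2; cpd + HLM 0.5 mg/mL + NADPH 0.5 mg/mL (final); 16 h 37 C; LiveBLAzer 2 h RT dark; fluorescence readout.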

[2] = p53 small molecule agonists, cell-based qHTS assay: qHTS cell viability counter screen (AID 1963581); details: p53RE-bla HCT-116 viability, ATP luminescence, 16 h; series mostly up to 66 µM; further: nearly all actives have a fitted effect of over 45% in size
Summary of the method: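 Cells: HCT-116 with p53 response element-driven beta-lactamase. Treatment: 16 h, 37 C, compounds in DMSO. Read: CellTiter-Glo luminescence after 30 min RT.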

[3] = biological target: Muscarinic acetylcholine receptor M1 (Homo sapiens) (UniProt P11229); assay: Cholinergic receptor muscarinic 1 (CHRM1) small molecule antagonists, cell-based qHTS assay (AID 1963588); details: CHRM1-CHO antagonist mode, calcium flux fluorescence; further: nearly all actives have a fitted effect of over 40% in size
Summary of the method: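 CHRM1-CHO calcium-flux assay, antagonist mode. Cells were seeded 18 h, dye-loaded 1 h at 37 C and given compound for 5 min at RT, then acetylcholine was added at 50nM. FDSS fluorescence was read 3 min; 15 concentrations, three runs.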

[4] = cAMP Responsive Elements (CRE) small molecule agonists, cell-based qHTS assay (AID 1963590); details: CRE-bla HEK293T, beta-lactamase FRET ratio, 3 h
Summary of the method: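 Agonist mode qHTS in CRE-bla HEK 293T cells: compounds dosed from DMSO for 3 h at 37 C/5% CO2, followed by LiveBLAzer B/G FRET substrate for 2 h at room temperature.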

[5] = biological target: Beta-2 adrenergic receptor (Homo sapiens) (UniProt P07550); assay: Adrenergic beta2 receptor (ADRB2) small molecule antagonists, cell-based qHTS assay (AID 1963592); details: CHO-ADRB2 cells, isoproterenol-stimulated cAMP HTRF ratio, 0.5 h; at 92.4 µM (top of the series) unless noted; further: nearly all actives have a fitted effect of over 50% in size
Summary of the method: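 Cells (CHO, stable ADRB2 overexpression) incubated 18-20hr at 37C; compounds added from DMSO; agonist mix (1nM isoproterenol, 100uM IBMX, 25uM Ro-20-1724) added; 0.5hr RT; d2-cAMP and anti-cAMP-cryptate added; 1hr RT; 665/615 nm read.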

[6] = at 92.4 µM (top of the series) unless noted
On the % scale 0 is the no-effect control and ±100 the full control effect.

CCOP(=S)(CC)Sc1ccccc1 (stereo unspecified)
active: Potency [1] 6.44 µM
inactive: Potency [2] | activity, negative = inhibition ([3]; at 61.5 µM (top of the series)) -6.36% | activation [4, 6] 2.17% | activity change, negative = inhibition [5] 0.963%

ClP(Cl)c1ccccc1
inactive: Potency [1] | Potency [2] | activity, negative = inhibition ([3]; at 61.5 µM (top of the series)) -2.98% | activation [4, 6] -0.229% | activity change, negative = inhibition [5] 2.78%

COP(=S)(Cl)OC
inactive: Potency [1] | Potency [2] | activation [4, 6] 0.56% | activity change, negative = inhibition [5] 6.7%

CCN(CC)CCOC(=O)C(O)(c1ccccc1)c1ccccc1
inactive: activity, negative = inhibition ([3]; at 28.3 µM (top of the series)) -32%

O=C(Cl)OCCOC(=O)Cl
inactive: Potency [1] | Potency [2] | activity, negative = inhibition ([3]; at 61.5 µM (top of the series)) -10.7% | activation [4, 6] 0.575% | activity change, negative = inhibition [5] 1.31%

CN(N=O)C(=N)N[N+](=O)[O-]
inactive: Potency [1] | Potency [2] | activity, negative = inhibition ([3]; at 61.5 µM (top of the series)) -16.8% | activation [4, 6] 0.0905% | activity change, negative = inhibition [5] 16.3%

C[C@H]1C(=O)O[C@@H]2CCN3CC=C(COC(=O)[C@](C)(O)[C@]1(C)O)[C@H]23
inactive: activity, negative = inhibition ([3]; at 28.3 µM (top of the series)) 51.5% | activity, negative = inhibition ([3]; at 61.5 µM (top of the series)) -14.2% and -14.9%

Cc1cc([N+](=O)[O-])c(O)c([N+](=O)[O-])c1
inactive: Potency [1] | Potency [2] | activity, negative = inhibition ([3]; at 61.5 µM (top of the series)) 13.6% | activity change, negative = inhibition [5] -0.618%

O=P(Cl)(Cl)c1ccccc1
inactive: Potency [1] | Potency [2] | activity, negative = inhibition ([3]; at 61.5 µM (top of the series)) 1.17% | activation [4, 6] 0% | activity change, negative = inhibition [5] -13.8%

NC(=O)Nc1ccc([As](=O)(O)O)cc1
inactive: Potency [1] | Potency [2] | activity, negative = inhibition ([3]; at 28.3 µM (top of the series)) -13.7% | activity, negative = inhibition ([3]; at 61.5 µM (top of the series)) 1.47% | activation ([4]; at 42.5 µM (top of the series)) -0.117% | activation ([4]; at 92.4 µM (top of the series)) -0.0068%

CCNC(C)Cc1ccc2c(c1)OCO2 (stereo unspecified)
inactive: Potency [1] | activity, negative = inhibition ([3]; at 61.5 µM (top of the series)) -16.1% | activation [4, 6] 0.0773%

CCCCO[P+](=O)OCCCC
inactive: Potency [1] | Potency [2] | activity, negative = inhibition ([3]; at 61.5 µM (top of the series)) 33.4% and 2.68% | activation [4, 6] -0.338% and -0.519% | activity change, negative = inhibition [5] 1.02% and -16.4%

O=[P+](Oc1ccccc1)Oc1ccccc1
inactive: Potency [1] | Potency [2] | activity, negative = inhibition ([3]; at 61.5 µM (top of the series)) -4.44% | activation [4, 6] 0.56% | activity change, negative = inhibition [5] 15.2%

O=C(Cl)Oc1ccccc1
inactive: Potency [1] | Potency [2] | activity, negative = inhibition ([3]; at 61.5 µM (top of the series)) 0.973% | activation [4, 6] -0.613% | activity change, negative = inhibition [5] -1.28%

CN(C(=O)Cc1ccccc1)[C@H]1CC[C@@]2(CCCO2)C[C@@H]1N1CCCC1
inactive: Potency [1] | Potency [2] | activity, negative = inhibition ([3]; at 28.3 µM (top of the series)) -20.6% | activation [4, 6] 1.73% [at 42.5 µM] | activity change, negative = inhibition [5] 0.99% [at 42.5 µM]

CN(C(=O)Cc1cccc2occc12)[C@H]1CC[C@@]2(CCCO2)C[C@@H]1N1CCCC1
inactive: Potency [1] | Potency [2] | activity, negative = inhibition ([3]; at 61.5 µM (top of the series)) -2.88% | activation [4, 6] -0.0374% | activity change, negative = inhibition [5] 11.2%

O=P(Cl)(Oc1ccccc1)Oc1ccccc1
inactive: Potency [1] | Potency [2] | activity, negative = inhibition ([3]; at 61.5 µM (top of the series)) 8.31% | activation [4, 6] 2% | activity change, negative = inhibition [5] -1.87%

O=[N+]([O-])c1ccc([N+](=O)[O-])cc1
inactive: Potency [1] | Potency [2] | activity, negative = inhibition ([3]; at 61.5 µM (top of the series)) 19.1% | activation [4, 6] 0.102% | activity change, negative = inhibition [5] -1.4%

CN(C(=O)Cc1ccc(Cl)c(Cl)c1)[C@H]1CC[C@@]2(CCCO2)C[C@@H]1N1CCCC1
inactive: Potency [1] | Potency [2] | activity, negative = inhibition ([3]; at 28.3 µM (top of the series)) -9.6% | activation [4, 6] -1.35% [at 42.5 µM] | activity change, negative = inhibition [5] -0.347% [at 42.5 µM]

O=C1C2CC=CCC2C(=O)N1SC(Cl)(Cl)C(Cl)Cl (stereo unspecified)
inactive: Potency [1] | activity change, negative = inhibition [5] -8.98%

CC(C)OP(=S)(OC(C)C)SCCNS(=O)(=O)c1ccccc1
inactive: Potency [2] | activity, negative = inhibition ([3]; at 61.5 µM (top of the series)) 3.82% | activity change, negative = inhibition [5] 8.48%

N#CSc1ccc([N+](=O)[O-])cc1[N+](=O)[O-]
inactive: activity, negative = inhibition ([3]; at 61.5 µM (top of the series)) -2.41%

O=[As]c1ccccc1 (stereo unspecified)
inactive: activity, negative = inhibition ([3]; at 61.5 µM (top of the series)) 11.7%

O=[N+]([O-])c1ccc(S(=O)(=O)O)c([N+](=O)[O-])c1
inactive: Potency [2] | activity, negative = inhibition ([3]; at 61.5 µM (top of the series)) 7.86% | activity change, negative = inhibition [5] -0.574%

CCCCOP(OCCCC)OCCCC
inactive: Potency [2] | activity, negative = inhibition ([3]; at 61.5 µM (top of the series)) 1.02% | activation [4, 6] -1.21% | activity change, negative = inhibition [5] -7.6%

CCOC(=O)Cl
inactive: Potency [2] | activity, negative = inhibition ([3]; at 61.5 µM (top of the series)) 0.158% | activation [4, 6] -0.585% | activity change, negative = inhibition [5] 0.745%

Cc1cc([N+](=O)[O-])cc([N+](=O)[O-])c1O
inactive: Potency [1] | Potency [2] | activity, negative = inhibition ([3]; at 61.5 µM (top of the series)) -7.09% and 20.2% | activity change, negative = inhibition [5] -11.1%

O=[p+]1oc2ccccc2c2ccccc21 (stereo unspecified)
inactive: Potency [2] | activity, negative = inhibition ([3]; at 61.5 µM (top of the series)) 7.43% | activation [4, 6] 0.0659% | activity change, negative = inhibition [5] 2.11%
